Here are results for two molecules from patent publication US12180165B2, “Human TLR8-selective agonists” (University of Kansas, priority 2015, dated 2024).

The test system of one experiment is CD14+ monocytes. Nature of the experiment: Eight-color flow cytometry of activation markers in human whole blood. Conditions: FIG. 5. In general terms: Flow cytometry measures light scatter and fluorescence of single cells or particles in a stream.
Another experiment deals with whole human blood. Nature of the experiment: Proinflammatory cytokine induction in whole human blood assays. It is filed as cell-based. To be noted: 2 relative to 1.

With `CCCCc1nc2c(N)nc3ccccc3c2n1Cc1ccc(CN)cc1`, the CD40 upregulation result in the experiment with CD14+ monocytes is “upregulate CD40”.
In the case of `CCCCc1nc2c(N)nc3ccccc3c2n1Cc1cccc(CN)c1`, the proinflammatory cytokine induction entry in the experiment on whole human blood is “higher proinflammatory cytokine induction”.
